This note sets out measurements from ChEMBL document CHEMBL3804765, “One-pot synthesis and sigma receptor binding studies of novel spirocyclic-2,6-diketopiperazine derivatives” (Bioorg Med Chem Lett, 2016).

A word on the Ki: it is a dissociation constant, usually derived from enzyme kinetics or from competition with a known ligand.

This assay addresses Sigma non-opioid intracellular receptor 1 (Cavia porcellus, UniProt Q60492).

SMILES strings stand for the structures.

With `c1ccc(CN2CCC3(CC2)N=Nc2ccccc2N3)cc1`, affinity was put at a Ki of 0.6 nM.
